Results taken from PMC12363342, “Investigating the N-terminal linker histone H1 subtypes as substrates for JmjC lysine demethylases” (RSC Chemical Biology, 2025).

What was measured:
KDM4A = assay: LC-MS demethylation activity assay, KDM4A; format: biochemical, human; conditions: room temperature
Procedure: (§1) The substrate specificity of JmjC KDMs for H1 was examined using liquid chromatography coupled to mass spectrometry (LC-MS) assays. The H1 peptides (10 μM) were incubated with the recombinant KDM (2 μM) in HEPES buffer at pH 7.5 at room temperature for 2 h, in the presence of ferrous(II) ammonium sulfate (FAS, 10 μM), sodium ascorbate (LAA, 100 μM) and 2OG (20 μM), and then quenched with formic acid. N^ε-Methylated H3K9 and H3K36 peptides were used as positive controls (Fig. 3–5 and Fig. S2–S6).[26]
(§2) The catalytic domains of the JmjC KDMs used were recombinantly produced as reported in either Escherichia coli (KDM4AM1-L359,[38] KDM4DM1-L359,[39] KDM4EM1-R336,[30] KDM6BD1141–E1590[40] and KDM3CL2157-L2500) or Sf9 cells (KDM3AT515–S1317, KDM3B882–1761, and KDM5DM1-D775) as N-terminally His6-tagged proteins. […] To produce proteins, DNA sequences encoding for KDM3A, KDM3B and KDM5D were inserted into the pFB-LIC vector, containing a TEV-protease cleavable N-terminal 6x-histidine tag via ligation independent cloning (LIC). The resultant plasmids were transformed into baculovirus and Sf9 cells ([…]) which were infected with the virus stock. The cells were grown at 27 °C and 90 rpm for 70 h. Cells were then harvested and suspended in 100 mL of lysis buffer (50 mM HEPES-NaOH, pH 7.4, 500 mM NaCl, 20 mM imidazole, 0.5 mM Tris (2-carboxyethyl)phosphine (TCEP), 5% (v/v) glycerol). […] The supernatant was loaded onto a Ni-NTA gravity column, washed with 10 column volume of lysis buffer and eluted using the elution buffer (50 mM HEPES-NaOH, pH 7.4, 500 mM NaCl, 300 mM imidazole, 0.5 mM TCEP, 5% (v/v) glycerol). The eluted protein was further purified using S200 gel filtration column chromatography (50 mM HEPES-NaOH, pH 7.4, 150 mM NaCl, 0.5 mM TCEP and 5% glycerol). Protein purity was analysed by SDS-PAGE and further confirmed by mass spectrometry. Selected fractions were pooled, concentrated and stored at −80 °C.
All reagents were purchased from Sigma Aldrich and were of the highest grade available. Ferrous(II) ammonium sulfate (FAS) solutions were prepared freshly by dissolving FAS to 400 mM in 20 mM HCl with subsequent dilution to 1 mM using deionized water. Fresh 2OG (10 mM) and LAA (50 mM) solutions were prepared by dissolving the solids in deionised water. All enzyme reactions were performed in 384-well plates (Greiner Bio-One) with a final reaction volume of 50 μL. Substrate mixtures contained 50 mM HEPES pH 7.5, LAA (100 μM), FAS (10 μM), 2OG (20 μM) and an H1 isoform peptide (10 μM). Reactions were initiated by the addition of enzyme to a final concentration of 2.0 μM. After 2 h, the reactions were stopped by the addition of 5 μL of 10% (v/v) LC-MS grade formic acid (Fisher Scientific) to a final concentration of 1% (v/v). Product analyses were performed by liquid chromatography-mass spectrometry (LC-MS) using an Agilent 1290 infinity II LC system equipped with an Agilent 1290 multisampler and an Agilent 1290 high speed pump and connected to an Agilent 6550 accurate mass iFunnel quadrupole time of flight (Q-TOF) mass spectrometer. 1 μL of the reaction mixture was injected onto a 1.8 μm × 2.1 × 50 mm ZORBAX RRHD Eclipse Plus C18 column (Agilent). Solvent A consisted of HPLC grade water containing 0.1% (v/v) formic acid and solvent B consisted of MeCN containing 0.1% (v/v) formic acid. Peptides were separated using a stepwise gradient (0 min – 95% solvent A, 1.0 min – 80% solvent A, 3.0 min – 45% solvent A, 4.0 min – 45% solvent A, 5.0 min – 0% solvent A, 6.0 min – 0% solvent A, 7.0 min – 95% solvent A). This was followed by a 3 min post-run with 95% solvent A to re-equilibrate the column. All flow rates were 0.2 mL min^−1.

KDM3A = assay: LC-MS demethylation activity assay, KDM3A; format: biochemical, human; conditions: 2 μM KDM, 10 μM H1/H3 peptide, 10 μM FAS, 100 μM LAA, 20 μM 2OG, 50 mM HEPES pH 7.5, 2 h, room temperature, T (tri-) initial methylation state
Procedure: as §1, §2
All reagents were purchased from Sigma Aldrich and were of the highest grade available. Ferrous(II) ammonium sulfate (FAS) solutions were prepared freshly by dissolving FAS to 400 mM in 20 mM HCl with subsequent dilution to 1 mM using deionized water. Fresh 2OG (10 mM) and LAA (50 mM) solutions were prepared by dissolving the solids in deionised water. All enzyme reactions were performed in 384-well plates (Greiner Bio-One) with a final reaction volume of 50 μL. Substrate mixtures contained 50 mM HEPES pH 7.5, LAA (100 μM), FAS (10 μM), 2OG (20 μM) and an H1 isoform peptide (10 μM). Reactions were initiated by the addition of enzyme to a final concentration of 2.0 μM. After 2 h, the reactions were stopped by the addition of 5 μL of 10% (v/v) LC-MS grade formic acid (Fisher Scientific) to a final concentration of 1% (v/v). […]

[1] = 2 μM KDM4A, 10 μM peptide, standard conditions, 2 h

ARTKQTARKme3STGGKA [Peptide H3K9me3, histone H3 residues 1-15 peptide with tri-methylated K9; commercial positive control, reference compound]
di-methylated product formed by KDM4A (KDM4A; [1]): ~53%
mono-methylated product formed by KDM4A (KDM4A; [1]): > 10%
KDM4A demethylation activity, T (KDM4A; 2 μM KDM, 10 μM H1/H3 peptide, 10 μM FAS, 100 μM LAA, 20 μM 2OG, 50 mM HEPES pH 7.5, 2 h, T (tri-) initial methylation state): ● [green] (green dots indicate good demethylation (>50% conversion))
KDM3A demethylation activity, T (KDM3A): ● [red]
